# Patent US11116757B2 (priority 2015, dated 2021)
# The chains behind the UniProt entries cited, without tags or fusion partners. Residues count along the entry.
# UniProt Q96GG9, 60-248 limits assumed: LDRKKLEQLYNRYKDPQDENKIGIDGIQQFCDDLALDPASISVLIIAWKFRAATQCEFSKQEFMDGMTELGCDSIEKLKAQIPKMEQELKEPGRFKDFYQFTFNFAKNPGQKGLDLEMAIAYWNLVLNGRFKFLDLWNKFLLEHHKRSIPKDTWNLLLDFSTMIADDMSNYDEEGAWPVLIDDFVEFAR
# Biological target: DCN1-UBC12 interaction (Homo sapiens (Human), UniProt Q96GG9)
# Test: TR-FRET assay for DCN1 binding to UBC12NAc peptide
# Conditions: read-out: TR-FRET IC50
structure (smiles),measurement,value
CCCN1CCC(NC(=O)Nc2ccc([N+](=O)[O-])cc2)CC1,IC50,> 67.6 µM
